From patent US9682990B2, “Alcohol-, diol-, and carbohydrate-substituted indenoisoquinolines as topoisomerase I inhibitors” (Purdue Research Foundation, priority 2011, dated 2017) come the findings set out here.

The assay has as its target T1, Human recombinant Top1 (Homo sapiens, UniProt P11387).
T1 sequence (P11387 1-765): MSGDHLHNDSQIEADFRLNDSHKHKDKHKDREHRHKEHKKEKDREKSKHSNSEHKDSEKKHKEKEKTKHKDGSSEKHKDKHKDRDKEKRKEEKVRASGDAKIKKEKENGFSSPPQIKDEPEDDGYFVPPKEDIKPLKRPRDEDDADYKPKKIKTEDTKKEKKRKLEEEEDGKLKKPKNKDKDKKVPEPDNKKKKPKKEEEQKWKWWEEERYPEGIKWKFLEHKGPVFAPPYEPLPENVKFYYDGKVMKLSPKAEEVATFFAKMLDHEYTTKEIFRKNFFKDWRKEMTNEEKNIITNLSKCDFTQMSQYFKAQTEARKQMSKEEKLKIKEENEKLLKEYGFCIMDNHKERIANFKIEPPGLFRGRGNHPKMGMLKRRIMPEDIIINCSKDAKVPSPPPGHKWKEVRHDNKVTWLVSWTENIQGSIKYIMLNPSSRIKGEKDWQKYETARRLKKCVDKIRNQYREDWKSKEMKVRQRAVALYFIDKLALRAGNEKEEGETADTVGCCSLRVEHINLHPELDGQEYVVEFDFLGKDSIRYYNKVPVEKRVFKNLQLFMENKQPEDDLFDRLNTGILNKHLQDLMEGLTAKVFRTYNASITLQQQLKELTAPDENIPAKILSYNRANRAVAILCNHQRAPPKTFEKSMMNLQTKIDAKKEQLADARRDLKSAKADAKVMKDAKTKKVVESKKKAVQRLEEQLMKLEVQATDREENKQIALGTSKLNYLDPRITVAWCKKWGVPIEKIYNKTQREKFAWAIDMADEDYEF
In words: Top1-mediated DNA cleavage assay. To be noted: graded relative to 1 uM camptothecin.
With `O=C1c2ccccc2-c2c1c1ccccc1c(=O)n2C[C@H](O)[C@@H](O)[C@H](O)CO` [Compound 17d, (2′S,3′R,4′R)-5,6-Dihydro-6-(2′,3′,4′,5′-tetrahydroxypentyl)-5,11-dioxo-11H-indeno[1,2-c]isoquinoline], the “Top1 Cleavage” value is “++ (++, between 50 and 75% activity)”.
Consider `O=C1c2ccccc2-c2c1c1ccccc1c(=O)n2C[C@@H](O)CO` [Compound 12b, (2′R)-5,6-Dihydro-6-[(2′,3′-dihydroxypropyl)]-5,11-dioxo-11H-indeno[1,2-c]isoquinoline], for which the “Top1 Cleavage” value is given as 0/+.
On to “(1′RS)-5,6-Dihydro-6-(3′-hydroxy-2′-methylethyl)-5,11-dioxo-11H-indeno[1,2-c]isoquinoline [Compound 22c]”, for which the “Top1 Cleavage” value is “+ (+, between 20 and 50% activity)”.
As to `NC[C@H](O)Cn1c2c(c3ccccc3c1=O)C(=O)c1ccccc1-2` [Compound 27d, (2′RS)-5,6-Dihydro-6-(3′-amino-2′-hydroxypropyl)-5,11-dioxo-11H-indeno[1,2-c]isoquinoline], the “Top1 Cleavage” value was “++ (++, between 50 and 75% activity)”.
Regarding `C[C@H](O)Cn1c2c(c3ccccc3c1=O)C(=O)c1ccccc1-2` [Compound 27c, (2′RS)-5,6-Dihydro-6-(2′-hydroxypropyl)-5,11-dioxo-11H-indeno[1,2-c]isoquinoline], the “Top1 Cleavage” value is “+ (+, between 20 and 50% activity)”.
Take `O=C(CO)Cn1c2c(c3ccccc3c1=O)C(=O)c1ccccc1-2` [Compound 25, 5,6-Dihydro-6-(3′-hydroxy-2′-oxopropyl)-5,11-dioxo-11H-indeno[1,2-c]isoquinoline]: the “Top1 Cleavage” value is “+ (+, between 20 and 50% activity)”.
With `O=C1c2ccccc2-c2c1c1ccccc1c(=O)n2C[C@H](O)[C@@H](O)[C@@H](O)CO` [Compound 17g, (2′S,3′R,4′S,5′R)-5,6-Dihydro-6-(2′,3′,4′,5′-tetrahydroxypentyl)-5,11-dioxo-11H-indeno[1,2-c]isoquinoline], the “Top1 Cleavage” value is “+ (+, between 20 and 50% activity)”.
`O=C1c2ccccc2-c2c1c1ccccc1c(=O)n2C[C@H](O)[C@@H](O)[C@H](O)[C@H](O)CO` [Compound 17c, (2′S,3′R,4′R,5′R)-5,6-Dihydro-6-(2′,3′,4′,5′,6′-pentahydroxyhexyl)-5,11-dioxo-11H-indeno[1,2-c]isoquinoline]: the “Top1 Cleavage” value is “++ (++, between 50 and 75% activity)”.
Take “(1′R)-5,6-Dihydro-6-(3′-hydroxy-1′-methylethyl)-5,11-dioxo-11H-indeno[1,2-c]isoquinoline [Compound 22b]”: the “Top1 Cleavage” value is “+ (+, between 20 and 50% activity)”.
The entry for `O=C1c2ccccc2-c2c1c1ccc([N+](=O)[O-])cc1c(=O)n2C[C@H](O)CO` [Compound 30, (2′S)-5,6-Dihydro-6-(2′,3′-dihydroxypropyl)-3-nitro-5,11-dioxo-11H-indeno[1,2-c]isoquinoline] is “++++”; for `O=C1c2ccccc2-c2c1c1ccccc1c(=O)n2C[C@H](O)CO` [Compound 12a, (2′S)-5,6-Dihydro-6-[(2′,3′-dihydroxypropyl)]-5,11-dioxo-11H-indeno[1,2-c]isoquinoline] it is “+++ (+++, between 75% and 95% activity)”; for `O=C1c2ccccc2-c2c1c1ccccc1c(=O)n2C[C@H](O)[C@H](O)[C@H](O)CO` [Compound 17b, (2′S,3′S,4′R)-5,6-Dihydro-6-(2′,3′,4′,5′-tetrahydroxypentyl)-5,11-dioxo-11H-indeno[1,2-c]isoquinoline] it is 0.
Turning to `O=C1c2ccccc2-c2c1c1ccc([N+](=O)[O-])cc1c(=O)n2C[C@H](O)[C@@H](O)[C@H](O)[C@H](O)CO` [Compound 19, (2′S,3′R,4′R,5′R)-5,6-Dihydro-6-(2′,3′,4′,5′,6′-pentahydroxyhexyl)-3-nitro-5,11-dioxo-11H-indeno[1,2-c]isoquinoline], the “Top1 Cleavage” value is recorded as “++++”.
For `CC[C@H](O)n1c2c(c3ccccc3c1=O)C(=O)c1ccccc1-2` [Compound 22a, (1′S)-5,6-Dihydro-6-(1′-hydroxy-2′-methylethyl)-5,11-dioxo-11H-indeno[1,2-c]isoquinoline], the “Top1 Cleavage” value is “++ (++, between 50 and 75% activity)”.
Take `O=C1c2ccccc2-c2c1c1ccccc1c(=O)n2C[C@@H](O)[C@H](O)[C@H](O)CO` [Compound 17a, (2′R, 3′S, 4′R)-5,6-Dihydro-6-(2′,3′,4′,5′-tetrahydroxypentyl)-5,11-dioxo-11H-indeno[1,2-c]isoquinoline]: the “Top1 Cleavage” value was “++ (++, between 50 and 75% activity)”.
Turning to `O=C1c2ccccc2-c2c1c1ccccc1c(=O)n2C[C@@H](O)[C@@H](O)[C@H](O)[C@H](O)CO` [Compound 17f, (2′R, 3′R, 4′R, 5′R)-5,6-Dihydro-6-(2′,3′,4′,5′,6′-pentahydroxyhexyl)-5,11-dioxo-11H-indeno[1,2-c]isoquinoline], the “Top1 Cleavage” value is “+ (+, between 20 and 50% activity)”.
Regarding `O=C1c2ccccc2-c2c1c1ccccc1c(=O)n2C[C@@H](O)[C@@H](O)[C@H](O)CO` [Compound 17e, (2′R,3′R,4′R)-5,6-Dihydro-6-(2′,3′,4′,5′-tetrahydroxypentyl)-5,11-dioxo-11H-indeno[1,2-c]isoquinoline], the “Top1 Cleavage” value is “+++ (+++, between 75% and 95% activity)”.
Under `C[C@H](O)Cn1c2c(c3ccccc3c1=O)C(=O)c1ccccc1-2` [Compound 27b, (2′S)-5,6-Dihydro-6-(2′-hydroxypropyl)-5,11-dioxo-11H-indeno[1,2-c]isoquinoline] stands “+++ (+++, between 75% and 95% activity)”; under `C[C@@H](O)Cn1c2c(c3ccccc3c1=O)C(=O)c1ccccc1-2` [Compound 27a, (2′R)-5,6-Dihydro-6-(2′-hydroxypropyl)-5,11-dioxo-11H-indeno[1,2-c]isoquinoline], “+++ (+++, between 75% and 95% activity)”; under `O=C1c2ccccc2-c2c1c1ccccc1c(=O)n2CC(O)CO` (racemic) [Compound 12c, (2′RS)-5,6-Dihydro-6-[(2′,3′-dihydroxypropyl)]-5,11-dioxo-11H-indeno[1,2-c]isoquinoline], “++ (++, between 50 and 75% activity)”.
On to `COc1cc2c3c(n(C[C@H](O)CO)c(=O)c2cc1OC)-c1ccccc1C3=O` [Compound 29, (2′S)-5,6-Dihydro-6-(2′,3′-dihydroxypropyl)-2,3-dimethoxy-5,11-dioxo-11H-indeno[1,2-c]isoquinoline], for which the “Top1 Cleavage” value was “+++ (+++, between 75% and 95% activity)”.
